For this experiment, the target named is Ferritin light chain (Equus caballus) (UniProt P02791). In words: Confirmation Assay for Identification of Novel General Anesthetics. Note: nearly all actives have a fitted effect of over 40% in size. The note with it: apoferritin 1-aminoanthracene fluorescence displacement. The text has this:
Anesthetic development has remained a largely empirical process. There are growing concerns about the cognitive effects of known general anesthetics and acceleration of the onset of neurodegenerative disease. The compounds' toxicity and multiple specific binding targets in the mammalian brain [4] has made them less attractive as drug leads. In this assay, a GABAergic mimetic model system, apoferritin and a profluorescent 1-aminoanthracene ligand (1-AMA), was used to construct a competitive binding assay for identification of novel general anesthetics. The assay was validated for 1-AMA using other known anesthetics, such as isoflurane (CID:3763) and propofol (CID: 4943), [6]. […]
in PBS) in columns 3, 4 as negative control and 1-AMA/apoferritin mixture (10 uM horse-spleen apoferritin in 50% saturated 1-aminoanthracene in PBS) in columns 1, 2, 5-48) was dispensed into 1536-well Greiner black assay plates. […] The plates were incubated for 10 min at room temperature, and then read on an EnVision HTS multilabel reader (Perkin-Elmer, Waltham, MA) (end point read, 3 min/plate) using Fura2 BFP excitation filter (380 nm, bandwidth 10 nm) and fluorescein emission filter (535 nm, bandwidth 25 nm) set. […] Activity was computed as the normalized fluorescence response relative to free 1-AMA and 1-AMA/apoferritin complex values. […]

By UniProt entry, the sequences of proteins in these tests, tags left out. Where a name states a change or a piece, a line headed by the entry shows the natural chain unless it says otherwise.
UniProt P02791: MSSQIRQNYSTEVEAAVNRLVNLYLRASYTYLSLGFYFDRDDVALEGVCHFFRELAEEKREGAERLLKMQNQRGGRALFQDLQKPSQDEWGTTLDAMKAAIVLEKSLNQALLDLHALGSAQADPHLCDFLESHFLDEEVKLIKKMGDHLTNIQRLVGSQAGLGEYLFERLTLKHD

Only a part is listed here, and it is no random draw. Inconclusive results are not listed. The source made the active and inactive calls. Calls come from the whole dose curve; as a rule, active = well fitted inhibition curve with a large enough effect; inconclusive = small, poorly fitted or top-dose-only effect; inactive = flat fitted curve, though single readings scatter.
Potency is the fitted concentration of half-maximal effect.

Consider `CCOC(=O)NC(Sc1ccccc1)C(Cl)(Cl)Cl` (stereo unspecified), for which the Potency is active: 15.8 µM.
